From publication PMC8187744, “PRMT5-mediated arginine methylation activates AKT kinase to govern tumorigenesis” (Nature Communications, 2021) come the findings set out here.

The experiment addresses T1, PRMT5/MEP50 bound to Myc beads.
T1 construct: PRMT5; Myc-PRMT5 cloned into the pRK5-myc vector; MEP50; Myc-MEP50 cloned into the pRK5-myc vector; Flag-MEP50 was cloned too
The experiment can be described thus: pull-down; in vitro binding: recombinant GST-AKT1 purified from mammalian cells incubated with Myc beads bound with PRMT5/MEP50, 4 °C for 4 h, with or without PIP3 (20 uM). The conditions noted are these: both partners purified.

B1: GST-AKT1 (natural protein, human, UniProt P31749 1-480, looked up)
chain: MSDVAIVKEGWLHKRGEYIKTWRPRYFLLKNDGTFIGYKERPQDVDQREAPLNNFSVAQCQLMKTERPRPNTFIIRCLQWTTVIERTFHVETPEEREEWTTAIQTVADGLKKQEEEEMDFRSGSPSDNSGAEEMEVSLAKPKHRVTMNEFEYLKLLGKGTFGKVILVKEKATGRYYAMKILKKEVIVAKDEVAHTLTENRVLQNSRHPFLTALKYSFQTHDRLCFVMEYANGGELFFHLSRERVFSEDRARFYGAEIVSALDYLHSEKNVVYRDLKLENLMLDKDGHIKITDFGLCKEGIKDGATMKTFCGTPEYLAPEVLEDNDYGRAVDWWGLGVVMYEMMCGRLPFYNQDHEKLFELILMEEIRFPRTLGPEAKSLLSGLLKKDPKQRLGGGSEDAKEIMQHRFFAGIVWQHVYEKKLSPPFKPQVTSETDTRYFDEEFTAQMITITPPDQDDSMECVDSERRPHFPQFSYSASGTA
notes: AKT1, CMV-GST-AKT1 in the mammalian expression pCMV-GST vector; also called AKT1-WT; recombinant GST-AKT1 protein; source: purified from mammalian cells
Turning to B1, the binding result is “binds”.
